Results published in paper PMC3931418 (Nature, 2014).

Key:
[1] = target: δ-OR WT (HEK293) (Homo sapiens, UniProt P41143); type: binding
[2] = target: δ-OR N131A (HEK293) (Homo sapiens, UniProt P41143, N131A); type: binding

DADLE
effect of NaCl on binding affinity [1]: reduced the affinity | binding affinity [2]: increased
